Where two headings read alike, the source gives them in different places.
Key:
[1] = biological target: Kv7.1-cyan fluorescent protein (Kv7.1-CFP) (human) (UniProt P51787); experiment: FRET or BRET
[2] = biological target: Kv7.1-cyan fluorescent protein (Kv7.1-CFP) (human) (UniProt P51787); experiment: FRET or BRET; remark: listed apart in the source

KCNE1-yellow fluorescent protein (KCNE1-YFP), P15382 1-129 (natural protein; other documents disagree on this pair)
FRET efficiency [1]: 0.14 | FRET efficiency (ER-PM+ junctions) [1]: 0.14 | FRET efficiency (energy transfer efficiency, EF) [1]: 0.15% | FRET efficiency [2]: 0.17

Source: paper PMC7112945
